How the values were obtained:
Format in all cases: cell-based
human AT1R [1] = target: T1, human AT1R (Homo sapiens, UniProt P30556); assay: IP1 accumulation assay (IP-One Tb), human AT1R; conditions: agonist detection, inactive = EC50 greater than 10 uM
rat AT1aR [2] = target: T2, rat AT1aR (Rattus norvegicus, UniProt P25095); assay: IP1 accumulation assay (IP-One Tb), rat AT1aR; conditions: agonist detection, inactive = EC50 greater than 10 uM
human AT1R [3] = target: T1, human AT1R; assay: PathHunter β-arrestin-2 recruitment assay, human AT1R; conditions: PathHunter β-arrestin HEK293 cells; inactive = EC50 greater than 10 uM; read-out: human AT1R b-arrestin2 EC50
Protocol: (§1) The proximal event in β-arrestin function mediated by GPCRs is recruitment to receptors following ligand binding and receptor phosphorylation by GRK's. Thus, the measure of β-arrestin recruitment was used to determine ligand efficacy for β-arrestin function.
(§2) B-arrestin-2 recruitment to the human and rat angiotensin 2 type 1 receptor (human AT1R and rat AT1aR, respectively) was measured with the PathHunter™ β-arrestin assay (DiscoveRx Corporation, Fremont Calif.). Cells, plasmid(s), and detection reagent(s) were purchased from DiscoveRx, and assays were performed per the manufacturer's instructions. Human AT1R and rat AT1aR were cloned into the pCMV-ProLink vector, verified by sequencing, and transfected into PathHunter β-arrestin HEK293 cells. Stably transfected clonal cell lines were selected with Hygromycin and G418. These clonal cell lines were used for all experiments.
(§3) For assays, 25,000 cells were seeded per well in 96-well microplates in volumes of 90 μL and allowed to grow overnight at 37° C. in 5% CO2. Peptides provided herein were dissolved in deionized water to a concentration of 1 mM. Peptides were then further diluted in assay buffer (Hank's balanced salt solution with 20 mM HEPES) to add peptide to the cells to reach final concentrations ranging from 10 μM to 1 pM. Cells were then incubated for 60 minutes at 37° C. in 5% CO2, followed by the addition of 50 μL of PathHunter Detection Reagent to each well. The microplates were then incubated at room temperature for 60 minutes, and then luminescence was measured using a NOVOstar microplate reader purchased from BMG Labtech. B-arrestin-2 recruitment to receptors was measured as relative luminescence intensity expressed in arbitrary units.

The chains behind the UniProt entries cited, without tags or fusion partners.
UniProt P25095, whole entry: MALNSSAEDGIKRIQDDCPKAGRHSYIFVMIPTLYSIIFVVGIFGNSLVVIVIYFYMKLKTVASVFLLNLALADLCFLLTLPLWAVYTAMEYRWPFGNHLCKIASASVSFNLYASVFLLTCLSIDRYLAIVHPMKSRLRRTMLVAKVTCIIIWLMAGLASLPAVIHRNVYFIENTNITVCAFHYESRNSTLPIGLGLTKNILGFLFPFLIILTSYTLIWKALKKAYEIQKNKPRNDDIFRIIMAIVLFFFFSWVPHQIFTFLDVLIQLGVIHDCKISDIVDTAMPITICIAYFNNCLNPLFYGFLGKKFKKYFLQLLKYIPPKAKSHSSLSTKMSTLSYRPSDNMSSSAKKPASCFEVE

rat AT1aR [4] = target: T2, rat AT1aR; assay: PathHunter β-arrestin-2 recruitment assay, rat AT1aR; conditions: PathHunter β-arrestin HEK293 cells; inactive = EC50 greater than 10 uM; read-out: rat AT1aR b-arrestin2 EC50
Protocol: as §1, §2, §3

SMILES | EC50 (human AT1R [1]) | EC50 (rat AT1aR [2]) | EC50 (human AT1R [3]) | EC50 (rat AT1aR [4])
CC[C@H](C)[C@H](NC(=O)[C@@H]1CCCN1C(=O)[C@H](Cc1c[nH]cn1)NC(=O)[C@H](Cc1ccc(O)cc1)NC(=O)[C@H](Cc1ccc(O)cc1)NC(=O)[C@@H](NC(=O)[C@H](CCCNC(=N)N)NC(=O)CNC)C(C)C)C(=O)O [SEQ ID NO: 14, Sar-Arg-Val-Tyr-Tyr-His-Pro-Ile-OH] | 160 nM | 32 nM | – | –
CC[C@H](C)[C@H](NC(=O)[C@@H]1CCCN1C(=O)[C@H](Cc1c[nH]cn1)NC(=O)[C@H](Cc1ccc(O)cc1)NC(=O)[C@H](Cc1ccc(O)cc1)NC(=O)[C@@H](NC(=O)[C@H](CCCNC(=N)N)NC(=O)CNC)C(C)C)C(N)=O [SEQ ID NO: 15, Sar-Arg-Val-Tyr-Tyr-His-Pro-Ile-NH2] | 250 nM | – | – | –
CC[C@H](C)[C@@H]1NC(=O)[C@H](Cc2ccc(O)cc2)NC(=O)[C@H](C(C)C)NC(=O)[C@H](CCCNC(=N)N)NC(=O)[C@@H]2CCCN2C(=O)[C@H](Cc2c[nH]cn2)NC(=O)[C@H]([C@@H](C)CC)NC(=O)[C@H](Cc2ccc(O)cc2)NC(=O)[C@H](C(C)C)NC(=O)[C@H](CCCNC(=N)N)NC(=O)[C@@H]2CCCN2C(=O)[C@H](Cc2c[nH]cn2)NC(=O)[C@H]([C@@H](C)CC)NC(=O)[C@H](Cc2ccc(O)cc2)NC(=O)[C@H](C(C)C)NC(=O)[C@H](CCCNC(=N)N)NC(=O)[C@@H]2CCCN2C(=O)[C@H](Cc2c[nH]cn2)NC1=O [SEQ ID NO: 36] | – | 100 nM | 1200 nM | 1900 nM

Source: US20210324005A1, “Beta-Arrestin Effectors and Compositions and Methods of Use Thereof” (Trevena, Inc., priority 2020, published 2021)
